Assay results from patent US20100291179A1, “COMPOSITE BIOMATERIAL FOR CONTROLLED RELEASE OF ACTIVE INGREDIENTS” (NMI Naturwissenschaftliches und Medizinishes Institut an …, priority 2007, published 2010).

Experiments:
[1] = system: pluripotent mouse fibroblasts (MC3T3-E1); assay: BMP-2-doped gelatine supports stored in culture medium, then MC3T3-E1 alkaline phosphatase activity; format: cell-based; details: stored in cell culture medium under culturing conditions; ALP activity of MC3T3-E1
Description: In accordance with A), gelatine supports were doped with the growth factor bone morphogenetic protein 2 (BMP-2). The supports doped in this way were stored in cell culture medium under culturing conditions for various times. Subsequently, the supernatant of the culture medium was removed and a cell suspension with pluripotent mouse fibroblasts (MC3T3-E1) was added, which fibroblasts differentiate to osteoblasts after activation with BMP-2, and express alkaline phosphatase whose activity can be used as a measure of the stimulation by the growth factor.

[2] = BMP-2 bound via cyclopeptides to the matrix structure: activity and release from the support; details: bound via various cyclopeptides to the matrix structure

time the growth factor was active in the gelatine support [1]: up to 28 days
Substance: BMP-2: growth factor bone morphogenetic protein 2
activity of BMP-2 in the support [2]: retained its activity in the support
